{
  "source": "patent US11285169B2",
  "about": "“Methods for modulating chemotherapeutic cytotoxicity” (The United States of America, as represented by the …, priority 2013, dated 2022)",
  "key": {"WT Jurkat cells": {"system": "WT Jurkat cells", "assay": "CellTiter-Glo viability screen of 1913 chemotherapeutic agents, wild-type Jurkat cells", "details": "48 hours, 10^-9 to 10^-4 M"}, "[1]": {"system": "CD47 deficient (CD47 KO) Jurkat T cells", "assay": "CellTiter-Glo viability screen of 1913 chemotherapeutic agents, CD47 deficient Jurkat cells", "details": "48 hours"}},
  "data": [
    {"substance": "4-Demethyl-epipodophyllotoxin", "values": [
      {"measurement": "Maximal Response WT (RLU)", "setting": "WT Jurkat cells", "result": 17.735, "unit": "RLU"},
      {"measurement": "Maximal Response CD47 KO (RLU)", "setting": "[1]; CD47 KO Jurkat T cells, 10^-9 to 10^-4 M, CellTiter-Glo", "result": 78.185, "unit": "RLU"},
      {"measurement": "Δ Maximal Response CD47KO-WT", "setting": "[1]; difference CD47 KO minus WT Jurkat cells", "result": 60.45}
    ]}
  ]
}
